The values below come from PMC5216351, “Obtaining control of cell surface functionalizations via Pre-targeting and Supramolecular host guest interactions” (Scientific Reports, 2017).

Amino acid sequences for entries named in this document (tags omitted).
UniProt P61073, whole entry: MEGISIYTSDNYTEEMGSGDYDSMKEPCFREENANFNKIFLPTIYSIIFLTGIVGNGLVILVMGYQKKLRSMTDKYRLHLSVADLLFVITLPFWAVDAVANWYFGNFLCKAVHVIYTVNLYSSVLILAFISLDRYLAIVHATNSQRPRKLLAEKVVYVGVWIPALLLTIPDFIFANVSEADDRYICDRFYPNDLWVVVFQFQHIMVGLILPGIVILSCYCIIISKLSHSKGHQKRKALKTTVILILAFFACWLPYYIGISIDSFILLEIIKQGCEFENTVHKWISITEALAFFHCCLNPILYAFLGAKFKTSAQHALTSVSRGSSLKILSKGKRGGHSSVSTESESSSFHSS

Structures are written as SMILES.

The subject of one assay is MDAMB231 X4 cells. Briefly: Host-guest dependent cell functionalization, confocal microscopy and flow cytometry. Type of assay: cell-based, human. To be noted: peptide 10 μM, polymer 10 μM β-CD / 1 μM polymer, 1 h each at 0 °C; Fig. 3a. As for the experimental part:
The receptor-mediated functionalization of cells was examined by confocal microscopy and flow cytometry (see also ‘Ac-TZ14011-Ad induced cell functionalization analyzed by flow cytometry’). For Confocal microscopy MDAMB231 × 4 cells (80,000 per well) were incubated with either Ac-TZ14011 (10 μM), Ac-TZ14011-Ad (10 μM), or none, for 1 h at 0 °C in 1 mL DMEM. Subsequently, either Cy5_0.4PIBMA39 or Cy5_0.5CD10PIBMA39 was added (10 μM β-CD; 1 μM polymer final concentration) and another hour at 0 °C of incubation followed. Thereafter, the cells were washed twice with PBS and confocal images were acquired. […] The Cy5 signal present on the cell in each sample was quantified to analyze differences between the amount of binding of the polymers to the cells when either, no peptide, Ac-TZ14011, or Ac-TZ14011-Ad was present. For normalization all results were divided by the average fluorescence value obtained when just the polymer was added. The significance of the obtained differences was determined by student T-test (two tailed, unpaired).
Besides examining the receptor-mediated functionalization of cells by confocal microscopy (see ‘Ac-TZ14011-Ad induced cell functionalization analyzed by confocal microscopy’) the functionalization was also examined by flow cytometry to quantify the rate of functionalization. […]
MDAMB231 X4 cells were trypsinized (using 0.5% trypsin/EDTA, BD Biosciences) and counted. […]
(In general: Flow cytometry measures light scatter and fluorescence of single cells or particles in a stream.)

The target in assay [1] is chemokine receptor 4 (CXCR4) (Homo sapiens, UniProt P61073). To be noted: read-out: affinity; unmodified peptide; given as affinity, compared with KD; cited from earlier work.

As to `CC(=O)N[C@@H](CCCNC(=N)N)C(=O)N[C@@H](CCCNC(=N)N)C(=O)N[C@@H](Cc1ccc2ccccc2c1)C(=O)N[C@H]1CSSC[C@@H](C(=O)N[C@@H](CCCNC(=N)N)C(N)=O)NC(=O)[C@H](CCCNC(N)=O)NC(=O)[C@H](CCCNC(=N)N)NC(=O)[C@H](Cc2ccc(O)cc2)NC(=O)[C@@H]2CCCN2C(=O)[C@@H](CCCCN)NC(=O)[C@H](CCCNC(=N)N)NC(=O)[C@H](CCCNC(N)=O)NC(=O)[C@H](Cc2ccc(O)cc2)NC1=O`, the “effect of pre-targeting peptide on Cy5_0.5CD10PIBMA39 binding” value in the assay with MDAMB231 X4 cells was “induces enhanced binding of the CD-polymer”. The Kd in assay [1] was 8.6 nM.
